Results on one molecule are retold here after patent US20120302748A1, “TREATMENT OR PROPHYLAXIS OF PROLIFERATIVE CONDITIONS” (THE UNIVERSITY COURT OF THE UNIVERSITY OF DUNDEE, priority 2009, published 2012).

The target of the assay is T1, CYP1B1 (Homo sapiens, UniProt Q16678).
T1 sequence (Q16678 1-543): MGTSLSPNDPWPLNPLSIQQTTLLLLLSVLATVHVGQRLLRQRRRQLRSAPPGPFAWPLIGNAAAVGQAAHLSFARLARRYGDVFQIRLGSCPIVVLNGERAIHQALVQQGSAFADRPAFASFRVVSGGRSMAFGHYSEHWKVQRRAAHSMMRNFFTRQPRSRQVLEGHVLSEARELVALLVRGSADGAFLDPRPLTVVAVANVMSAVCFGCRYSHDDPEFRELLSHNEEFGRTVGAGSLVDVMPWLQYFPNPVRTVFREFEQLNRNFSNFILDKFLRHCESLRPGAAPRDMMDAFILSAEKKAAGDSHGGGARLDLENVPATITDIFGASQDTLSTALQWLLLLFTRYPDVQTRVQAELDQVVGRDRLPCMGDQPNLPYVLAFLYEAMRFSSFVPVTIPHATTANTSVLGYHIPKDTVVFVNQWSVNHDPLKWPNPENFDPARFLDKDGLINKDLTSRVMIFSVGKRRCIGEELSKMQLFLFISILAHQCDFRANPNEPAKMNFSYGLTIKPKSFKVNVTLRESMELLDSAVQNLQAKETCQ
Description: CYP1B1 substrate prediction model (Gaussian Kernel weighted k-NN). To be noted: predicted versus actual.

Consider `O=c1cc(-c2ccccc2)oc2c1ccc1ccccc12` [α-napthoflavone, α-naphthoflavone], for which the “% CYP1B1 substrate inhibition accuracy” value was 93%.
